Test results from patent publication US7439223.

Columns and labels:
nucleophosmin/B23 [1] = assay: cell-based or functional assay
nucleophosmin/B23 [2] = assay: dissociation constant; method not described (FIG. 4)

Substance	concentration at which there was a 50% decrease in cell viability (Ras-3T3 cells, 24 hours) (nucleophosmin/B23 [1]) [µM]	Kd (nucleophosmin/B23 [2]) [µM]
Rev peptide ([…])	95.1	
Rev peptide ([…]) (peptide; other documents disagree on this pair)		0.082
